Tested on: 48 bp Col2a1 enhancer
Experiment: 48 bp Col2a1 enhancer luciferase reporter transfection assay in SW1353 cells
Type: cell-based, human
Details: concentration not given; data not shown
Protocol: Reagents were obtained from Invitrogen unless otherwise noted. SW1353 human chondrosarcoma cells (ATCC #HTB-94) were grown in DMEM 10% FBS 10 ug/ml Gentamicin and passaged (2 times a week) using with 0.25% Trypsin-EDTA.
Cells were plated at ˜10^6 cells per flask into a T-75 in 10 ml growth media or an equivalent based on culture vessel surface area, 24 hours prior to transfection. For each transfection, 24 ul of Transit (PanVera) was diluted into 250 ul OptiMEM and 12 ug of reporter plasmid Col2a1 enhancer construct (48 bp Col2a1, was added. After 15-30 minute incubation, growth media was removed from the cells, and the DNA-transfection reagent complexes diluted to a final volume of 10 ml with OptiMEM and added to the cells. Transfection media was replaced with fresh media after 7 hours. 24 hours post transfection the cells were treated with media alone or indicated factors. Cells were harvested 48 hours post-transfection and luciferase activity measured using the LucLite and the TopCount LSC plate reader (Packard).
We analyzed the activity of the 48 bp Col2a1 enhancer construct (48 bp Col2a1) in transfected SW1353 cells. SW1353 cells were transfected with a constant amount of reporter (0.25 ug), with or without increasing amounts of the Sox9 expression construct or empty vector.

B1: BMP-2: BMP growth factor (protein, UniProt P12643 283-396, looked up)
Bone morphogenetic protein 2: QAKHKQRKRLKSSCKRHPLYVDFSDVGWNDWIVAPPGYHAFYCHGECPFPLADHLNSTNHAIVQTLVNSVNSKIPKACCVPTELSAISMLYLDENEKVVLKNYQDMVVEGCGCR
  effect on Sox9 activity / responsiveness of SW1353 cells transfected with the 48 bp Col2a1 enhancer: unresponsive

From US20040241755A1, “Human cell assay to determine effect of sample compounds on Col2 enhancer expression” (Pfizer Inc., priority 2003, published 2004)
